Assay results as given in article PMC8343220, “The selectivity of α‐adrenoceptor agonists for the human α1A, α1B, and α1D‐adrenoceptors” (Pharmacology Research & Perspectives, 2021).

Legend:
Assay type in all cases: cell-based
[1] = molecular target: T1, human α1A‐adrenoceptor (Homo sapiens, UniProt P35348); assay: ERK1/2‐phosphorylation (Surefire Alphascreen), CHO‐α1A cells
T1 construct: expressed in transfected cells; host or cells: CHO-K1
T1 sequence (P35348 1-466): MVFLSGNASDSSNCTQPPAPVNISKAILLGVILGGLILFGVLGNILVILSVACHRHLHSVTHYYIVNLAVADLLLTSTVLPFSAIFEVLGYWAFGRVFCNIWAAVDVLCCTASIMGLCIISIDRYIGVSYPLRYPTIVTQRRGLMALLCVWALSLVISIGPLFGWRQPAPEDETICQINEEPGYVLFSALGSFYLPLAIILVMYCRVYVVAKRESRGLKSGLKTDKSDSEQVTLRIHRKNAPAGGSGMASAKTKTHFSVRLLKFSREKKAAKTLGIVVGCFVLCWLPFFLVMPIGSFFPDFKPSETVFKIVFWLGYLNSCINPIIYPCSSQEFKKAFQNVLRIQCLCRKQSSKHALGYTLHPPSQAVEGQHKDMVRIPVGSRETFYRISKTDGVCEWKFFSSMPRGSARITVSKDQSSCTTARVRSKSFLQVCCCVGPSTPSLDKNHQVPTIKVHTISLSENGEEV

[2] = molecular target: T1, human α1A‐adrenoceptor; assay: ^3H‐cAMP accumulation, CHO‐α1A cells; conditions: 5 h
[3] = molecular target: T1, human α1A‐adrenoceptor; assay: ^3H‐cAMP accumulation in the presence of 10 μM forskolin, CHO‐α1A cells
[4] = molecular target: T1, human α1A‐adrenoceptor; assay: Intracellular free calcium mobilization, CHO‐α1A cells

For Bromocryptine, the “ERK1/2‐phosphorylation Log EC50” value [1] was −7.26 ± 0.16, the “cAMP accumulation Log EC50” value [2] was “No response” and the “cAMP accumulation (in presence of forskolin) Log EC50” value [3] was “No response”. The “Intracellular calcium release Log EC50” value [4] was −7.31 ± 0.07.
